Values quoted from earlier work as cited in patent publication US10111869B2, “Reduction of opioid blood fluctuations” (priority 2009, dated 2018).

Details: in vivo

With `CN1CC[C@]23c4c5ccc(O)c4O[C@H]2C(=O)CC[C@H]3[C@H]1C5` [Hydromorphone] as the molecule, how does the “analgesic potency relative to morphine” value read?
The value was “about 7.5 times”.
